## Measured affinities in a library of Ab-14 light chain variants

The target is the same throughout: PDVDLGDISGINAS, from the HR2 region of SARS-CoV-2 spike.

Each scFv is VH, the linker GGGGSGGGGSGGGGS, VL, as in the parent Ab-14, and differs from it in the CDRs of the light chain only.
VH: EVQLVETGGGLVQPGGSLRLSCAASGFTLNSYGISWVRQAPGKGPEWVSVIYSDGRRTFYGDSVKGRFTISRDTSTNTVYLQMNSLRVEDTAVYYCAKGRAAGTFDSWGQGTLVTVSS
VL: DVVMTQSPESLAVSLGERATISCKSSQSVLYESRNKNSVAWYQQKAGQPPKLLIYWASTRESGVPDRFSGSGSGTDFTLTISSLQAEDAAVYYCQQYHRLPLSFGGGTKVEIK

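The library (AAYL50) carries one to three amino acid substitutions per variant, with no insertions or deletions. AlphaSeq pools MATa yeast showing the antibodies with MATalpha yeast showing the peptide. Mating (16 h, 30 °C) was followed by selection of diploids and sequencing of their barcodes. Each replicate has its own calibration line, from reference interactions of the BCL2 family. Each pool was mated in three replicate cultures.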

Changes read parent residue, position, new residue, counted from the first residue of the VL shown.
The read-out is the apparent dissociation constant on a log10 scale (nM): the lower, the stronger.
Averages over replicates are reported, and they cover detected replicates only.
"no signal" means that the variant was in the library but no mating with the target was seen in any replicate; the authors take this as a sign of poor binding, and no number exists.
As a blank, each scFv also met three strains without target: over library AAYL50, 18% of these pairings were detected, typically at 4.19 and seldom below 2.99. The control count says in how many pairings with the empty strains this scFv gave a signal.

| log10 Kd (nM), mean | replicates with signal | signal with controls | changes |
|---|---|---|---|
| 3.52 | 3/3 | 1/9 | K24T A57G R60P |
| 0.93 | 3/3 | 2/9 | Y31G S103G |
| no signal | 0/3 | 0/9 | K36S Q96A L100R |
| 2.27 | 3/3 | 1/9 | E32C E61M |
| 2.99 | 3/3 | 2/9 | K24W L30C Y31C |
| 1.22 | 3/3 | 5/9 | T59W S62D S103I |
| 3.65 | 3/3 | 1/9 | S26Y S28C H98S |
| -0.19 | 3/3 | 1/9 | S25V S33D S103G |
| no signal | 0/3 | 1/9 | K24A R60F Y97E |
| no signal | 0/3 | 0/9 | K36G T59M Q95N |
| 1.34 | 3/3 | 1/9 | S38A R60L R99A |
| no signal | 0/3 | 0/9 | E32G A57G L102H |
| 1.73 | 3/3 | 3/9 | E61M Y97N |
| 1.70 | 1/3 | 0/9 | V39M Y97E H98G |
| 5.29 | 1/3 | 2/9 | V29S E32N L100V |
| 3.38 | 2/3 | 2/9 | Y31T E32Y A57C |
| 3.26 | 1/3 | 2/9 | Q27S N35G Q95P |
| no signal | 0/3 | 2/9 | S33G V39H H98Q |
| 2.50 | 3/3 | 0/9 | N37R A57D H98M |
| no signal | 0/3 | 1/9 | S26Y Y97C R99L |
| 5.01 | 2/3 | 0/9 | V29I N37A R60F |
| no signal | 0/3 | 2/9 | S38C R60P Q96E |
| no signal | 0/3 | 0/9 | V39A A57V |
| 1.40 | 3/3 | 6/9 | Q95N R99Q |
| 0.42 | 3/3 | 1/9 | A40C W56G E61D |
| 0.94 | 3/3 | 2/9 | K24H S26R R99H |
| 3.31 | 3/3 | 1/9 | K24H W56L E61P |
| 2.74 | 3/3 | 3/9 | S25H Q27H S58G |
| 1.70 | 3/3 | 7/9 | S28L Y97Q P101D |
| 3.82 | 1/3 | 4/9 | N37E A40K Q96M |
| 1.51 | 3/3 | 1/9 | S28R K36L T59V |
| no signal | 0/3 | 1/9 | N37H A40T L100D |
| 1.84 | 3/3 | 0/9 | Y31A E61R Q95C |
| 1.63 | 3/3 | 2/9 | Q27C K36E H98N |
| 3.21 | 3/3 | 3/9 | S26M Y31P V39F |
| no signal | 0/3 | 0/9 | S26D V39K R99C |
| no signal | 0/3 | 0/9 | Y31H W56G S62L |
| 4.47 | 2/3 | 4/9 | Q27D V39Q Q95H |
| 3.44 | 3/3 | 3/9 | S26H S28D P101C |
| 1.81 | 1/3 | 0/9 | Y31S T59C Q96D |
| 5.12 | 1/3 | 1/9 | W56V T59A R60C |
| 3.40 | 3/3 | 2/9 | Q27P R34K S38E |
| 1.29 | 3/3 | 0/9 | S28Q Y31H Q95V |
| 2.69 | 3/3 | 0/9 | V39C S58I S62H |
| 4.62 | 1/3 | 4/9 | S26W Q27F S58K |
| 5.27 | 2/3 | 2/9 | Q27D S38A A40N |
| 1.92 | 3/3 | 2/9 | S58A H98Q R99A |
| 2.32 | 2/3 | 0/9 | S38G W56E P101A |
| 1.46 | 3/3 | 2/9 | K24R S26V H98W |
| 2.77 | 3/3 | 9/9 | Y31R Y97H L100C |
| no signal | 0/3 | 0/9 | N37R V39C R60Q |
| 2.58 | 3/3 | 1/9 | K24R S38H S62H |
| no signal | 0/3 | 1/9 | R34F Y97W R99T |
| 3.72 | 1/3 | 1/9 | W56A E61T L100T |
| no signal | 0/3 | 0/9 | V29K Q95D |
| 0.34 | 3/3 | 0/9 | S26E R34T |
| 4.02 | 1/3 | 0/9 | Y31Q N37G Y97W |
| 0.77 | 3/3 | 6/9 | W56N H98N L100C |
| 3.93 | 1/3 | 3/9 | E32V T59F Q95E |
| 2.88 | 3/3 | 2/9 | S28N R34N Y97M |
| no signal | 0/3 | 0/9 | K24W L30W P101S |
| -0.05 | 3/3 | 2/9 | V29G W56K R99D |
| 4.53 | 2/3 | 4/9 | L30T Q96S H98R |
| 2.15 | 1/3 | 0/9 | S26W N35I E61H |

A selection of 8 entries from above:

changes	log10 Kd (nM), mean	replicates with signal	signal with controls
K24H S26R R99H	0.94	3/3	2/9
S26E R34T	0.34	3/3	0/9
Q95N R99Q	1.40	3/3	6/9
S26M Y31P V39F	3.21	3/3	3/9
T59W S62D S103I	1.22	3/3	5/9
K24A R60F Y97E	no signal	0/3	1/9
V29I N37A R60F	5.01	2/3	0/9
Q27D S38A A40N	5.27	2/3	2/9

From the AlphaSeq antibody data of Engelhart et al. 2022 (doi:10.1038/s41597-022-01779-4), copy in the FLAb collection.